Literature values as cited in PMC3849818 (Journal of medicinal chemistry, 2013).

Columns and labels:
OX2 = conditions: read-out: IC50 OX2; cited from earlier work
OX1 = conditions: cited from earlier work

Structure (SMILES) | IC50 (OX2) [nM] | potency at OX1 (OX1) | selectivity for OX1 over OX2 (OX1)
COc1ccc(C[C@H]2c3cc(OC)c(OC)cc3CCN2[C@@H](C(=O)NC(C)C)c2ccccc2)cc1OC [ACT-335827, reference compound] | 417 | – | –
Cc1nc2ccc(NC(=O)Nc3ccnc4cccnc34)cc2o1.Cl [Compound 1] | – | ~ 40 nM | at least 50 fold
